# Measured affinities in a library of Ab-95 light chain variants

Binding partner: SARS-CoV-2 spike HR2 peptide, sequence PDVDLGDISGINAS.

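Variants in AAYL52 differ from the parent at up to three CDR positions; double and triple changes were sampled at random. AlphaSeq pools MATa yeast showing the antibodies with MATalpha yeast showing the peptide. Pairs that bind mate more often; barcode pairs of the diploids are counted by sequencing. The ratio of observed to expected reads was calibrated, replicate by replicate, on BCL2-family standards whose Kd was known from biolayer interferometry. Mating was done three times.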

Parent: Ab-95, a human scFv built as VH, three GGGGS repeats, VL. Only the CDRs of the light chain vary.
VH: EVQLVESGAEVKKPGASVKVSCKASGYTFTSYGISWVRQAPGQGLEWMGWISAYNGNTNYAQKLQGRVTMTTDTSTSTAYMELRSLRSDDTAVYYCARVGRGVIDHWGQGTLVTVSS
VL: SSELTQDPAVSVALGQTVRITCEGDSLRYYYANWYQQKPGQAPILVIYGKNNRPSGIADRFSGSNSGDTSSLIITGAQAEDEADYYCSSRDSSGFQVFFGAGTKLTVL

The parent's light chain CDRs are EGDSLRYYYAN, GKNNRPS, SSRDSSGFQVF; each variant's own CDRs replace them letter for letter.
Values are log10 of the apparent Kd in nM; lower means stronger binding.
Replicates are averaged; those with no signal do not enter the mean.
A pair that was not seen in any replicate is written "nd"; this usually means weak binding, but a binder can also be missed.
Entries are sorted by rising average, undetected variants last.

1.11 (3 of 3 replicates; controls 2 of 9) for EGDSLRYKYAN / GKNDRPS / SSRDSSKFQVF.
1.43 (3 of 3 replicates; controls 4 of 9) for YGISLRYQYAN / GKNNRPS / SSRDSSGFQVF.
1.67 (3 of 3 replicates; controls 1 of 9) for WGDSLRYAYAN / GKNNRPS / SSGDSSGFQVF.
1.84 (3 of 3 replicates; controls 0 of 9) for EGDSLRYYYAN / GKNNRPS / SSRESHGFQLF.
1.96 (3 of 3 replicates; controls 6 of 9) for EGDSLRYYYAF / GKNNRPG / SSRHSSGFQVF.
1.99 (1 of 3 replicates; controls 0 of 9) for EGDSLRYYYCN / GKNNRSS / SSRDCSGFQVF.
2.29 (3 of 3 replicates; controls 1 of 9) for EGQSLRYYYAN / GKNNRAS / SSRDSSGFQVF.
2.53 (3 of 3 replicates; controls 3 of 9) for EGDALRYEYKN / GKNNRPS / SSRDSSGFQVF.
2.54 (3 of 3 replicates; controls 1 of 9) for EGDSLRYYHAN / GKNNRPW / NSRDSSGFQVF.
2.56 (3 of 3 replicates; controls 1 of 9) for EGDSLRPYYAN / GKNNRPS / SSRDSSGFQNF.
2.61 (3 of 3 replicates; controls 2 of 9) for EGDSLRYYYAN / GKNNRPS / HSRSSRGFQVF.
2.71 (3 of 3 replicates; controls 0 of 9) for EGDSLRYYYAN / GQNNRPS / ESRDSSGIQVF.
2.95 (3 of 3 replicates; controls 3 of 9) for EGDSLRYYWAN / GKANPPS / SSRDSSGFQVF.
2.98 (3 of 3 replicates; controls 2 of 9) for CGDSLRYYYAN / GKNNRPS / SSRDMSRFQVF.
3.07 (1 of 3 replicates; controls 2 of 9) for SGSSLRYYYAN / GCNNRPS / SSRDSSGFQVF.
3.15 (2 of 3 replicates; controls 3 of 9) for GGDSLRYYYAN / GKANRPS / SSCDSSGFQVF.
3.25 (3 of 3 replicates; controls 2 of 9) for EGDSLRYYYAN / GKNNRNE / SSRKSSGFQVF.
3.30 (1 of 3 replicates; controls 2 of 9) for EGDTMYYYYAN / GKNNRPS / SSRDSSGFQVF.
3.38 (1 of 3 replicates; controls 3 of 9) for EGDSLRYYYAN / VKNVMPS / SSRDSSGFQVF.
3.44 (3 of 3 replicates; controls 3 of 9) for EGDSGRYYYAN / GKNNRPS / SCRDSSGFQVH.
3.56 (1 of 3 replicates; controls 3 of 9) for EGISLRYYYAN / GKYERPS / SSRDSSGFQVF.
3.63 (3 of 3 replicates; controls 1 of 9) for EGDSLRYYYVN / GKNNRPS / SSEDSSGFGVF.
3.77 (3 of 3 replicates; controls 5 of 9) for EGDSLRYYYAN / GKNRRPS / SSRNSSGFAVF.
3.79 (3 of 3 replicates; controls 5 of 9) for EGDSPRYYYAN / GKNNRPS / SSRDISGFRVF.
3.81 (3 of 3 replicates; controls 0 of 9) for EGDSLRYYYAN / GCNNRPS / SSRDSSGFPWF.
3.81 (3 of 3 replicates; controls 2 of 9) for EGFSLRYYYAN / GKNNRLT / SSRDSSGFQVF.
3.93 (2 of 3 replicates; controls 2 of 9) for SGDSKRYYYAN / GKNNRPS / SMRDSSGFQVF.
3.96 (1 of 3 replicates; controls 1 of 9) for EGDSLRYYYAN / HKNKRPS / SSRDSSGGQVF.
3.98 (2 of 3 replicates; controls 3 of 9) for EGDSLRYYYAN / GKNNRPN / SSRGSSGFQVL.
3.98 (2 of 3 replicates; controls 3 of 9) for SGDSLRHYYAK / GKNNRPS / SSRDSSGFQVF.
3.99 (2 of 3 replicates; controls 3 of 9) for EGDSPRYYYAN / PKNNRPS / SSRPSSGFQVF.
4.00 (2 of 3 replicates; controls 3 of 9) for EGDTLRYYYAN / GKNNRPR / SLRDSSGFQVF.
4.03 (2 of 3 replicates; controls 3 of 9) for EGDSLRYYYAR / GRANRPS / SSRDSSGFQVF.
4.04 (1 of 3 replicates; controls 2 of 9) for EGDSLRYYYAN / GKNNVPS / SSEDQSGFQVF.
4.05 (1 of 3 replicates; controls 1 of 9) for EGNSGRYYYAN / GKNNRPS / SSRDSSGFTVF.
4.11 (3 of 3 replicates; controls 1 of 9) for LCDSLRYYYAN / GKNNRPS / SSRDSSSFQVF.
4.15 (2 of 3 replicates; controls 5 of 9) for CLDSLRYYYAT / GKNNRPS / SSRDSSGFQVF.
4.16 (1 of 3 replicates; controls 5 of 9) for EGDSPFYYYAN / GKNNRPS / SSRDSSGFQPF.
4.18 (1 of 3 replicates; controls 4 of 9) for EGDSLRHYYAM / GKNNRPS / SSRDSSGFQTF.
4.19 (2 of 3 replicates; controls 2 of 9) for EGDSLRYYYAN / GKNNRPS / FSRDSSGGQVP.
4.21 (2 of 3 replicates; controls 2 of 9) for EGDSLRYYYAN / GKNNRPS / SPRDSQGFQVF.
4.25 (2 of 3 replicates; controls 2 of 9) for EGDQSRYYYAN / GKNNRPS / SSSDSSGFQVF.
4.30 (3 of 3 replicates; controls 4 of 9) for EGDSLRYYYAN / GKNYFPS / SSRDSSGFQVV.
4.37 (3 of 3 replicates; controls 4 of 9) for EGDSLRYYYAN / GKLNRPS / SSRDSSGFQVG.
4.41 (2 of 3 replicates; controls 5 of 9) for EGDSLRYYYAN / GKNNEPS / CSRDSSGFQVF.
4.66 (1 of 3 replicates; controls 6 of 9) for EGDSLRYPYAT / KKNNRPS / SSRDSSGFQVF.
nd (0 of 3 replicates; controls 1 of 9) for EGDSLPYYYAN / GKNNRPS / SSRYSMGFQVF.
nd (0 of 3 replicates; controls 1 of 9) for EGDSLRYYYAN / NKNNRWS / SSRDSSGFNVF.
nd (0 of 3 replicates; controls 0 of 9) for EGRSLRYYYAN / GKNNRMS / SPRDSSGFQVF.
nd (0 of 3 replicates; controls 0 of 9) for EGLSLRYYYAN / AKNNRPS / SSRDSSGFQVF.
nd (0 of 3 replicates; controls 1 of 9) for EGDSLRYYYAY / GKNNRPS / SHKDSSGFQVF.
nd (0 of 3 replicates; controls 0 of 9) for EGDSNRYYYAN / GKNNRPS / SSRDSHHFQVF.

The last 6 entries again:

Variant EGDSLPYYYAN / GKNNRPS / SSRYSMGFQVF gave nd (0 of 3 replicates; controls 1 of 9).
Variant EGDSLRYYYAN / NKNNRWS / SSRDSSGFNVF gave nd (0 of 3 replicates; controls 1 of 9).
Variant EGRSLRYYYAN / GKNNRMS / SPRDSSGFQVF gave nd (0 of 3 replicates; controls 0 of 9).
Variant EGLSLRYYYAN / AKNNRPS / SSRDSSGFQVF gave nd (0 of 3 replicates; controls 0 of 9).
Variant EGDSLRYYYAY / GKNNRPS / SHKDSSGFQVF gave nd (0 of 3 replicates; controls 1 of 9).
Variant EGDSNRYYYAN / GKNNRPS / SSRDSHHFQVF gave nd (0 of 3 replicates; controls 0 of 9).

Background: pairings of library AAYL52 with three empty control strains gave a value in 28% of cases (median 3.91, 5th percentile 2.90). Values in that range, when seen in few replicates, are hard to tell from nonspecific mating. The control count says in how many pairings with the empty strains this scFv gave a signal.
In this assay the parent's reference entry averaged 2.31; its copy inside this library read 2.25.

The measurements come from Engelhart et al. 2022 (doi:10.1038/s41597-022-01779-4) through the FLAb antibody collection.